Consider one substance from article PMC8896178 (mAbs, 2022).

Sequences of proteins named here, by UniProt entry; tags and fusion partners are left off. Residues count along the entry.
UniProt Q15116, 25-288: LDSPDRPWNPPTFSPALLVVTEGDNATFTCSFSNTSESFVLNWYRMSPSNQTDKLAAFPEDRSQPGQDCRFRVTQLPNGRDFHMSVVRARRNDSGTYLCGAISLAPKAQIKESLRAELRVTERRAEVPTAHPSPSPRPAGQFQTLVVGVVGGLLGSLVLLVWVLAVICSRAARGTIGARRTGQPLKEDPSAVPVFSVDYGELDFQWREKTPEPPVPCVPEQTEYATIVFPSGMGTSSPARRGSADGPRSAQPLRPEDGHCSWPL

This assay has as its target PD1 protein (human) (UniProt Q15116). Briefly: ELISA.

As to nivolumab (Opdivo) (antibody), the EC50 amounted to 0.27 nM.

The term EC50 denotes the concentration that produces a half-maximal response.
